The entries are a selection whose mix differs from that of the whole data set. Calls of active or inactive are those of the source. Cut-off read from the data, not from the text of the source: active = activity change below about -85%; inactive = the rest.

Activity change, negative = activation data for four molecules are collected here from PubChem BioAssay AID434970 (Sanford-Burnham Center for Chemical Genomics, 2010).

For the experiment, the system named is intestinal alkaline phosphatase [Mus musculus]. Kind of experiment: activators of mouse IAP, confirmation, biochemical, luminescence, single concentration (AID 434970). The conditions noted are these: purified mouse IAP, CDP-Star luminescence, 30 min; at 10 µM; active compounds read low.
For the molecule `COc1ccc(OP(C)(=O)Nc2cccc(F)c2)cc1` (centres undefined), the activity change, negative = activation was inactive: 2.95%. Next, `CCOP(C)(=S)SCC(=O)NC(C)(CC)C(=O)O` (centres undefined): inactive: 9.6%; `COc1ccc(OP(C)(=O)Nc2cccc(Br)c2)cc1` (centres undefined): inactive: -6.45%; `CCN(CC)CC(O)COC(=O)C(O)(c1ccccc1)C1CCCCC1` (centres undefined): inactive: 4.6%.
